This assay concerns the target LCA (lectin protein) (Lens culinaris, UniProt P02870). The assay can be described thus: SPR measurement of bonding of LCA to sensor chip with immobilized ligand conjugate. (Surface plasmon resonance follows binding to a sensor surface in real time, without labels.)

Chains of the proteins cited; added tags and fusions are not shown. Residues count along the entry.
UniProt P02870, 31-210 limits assumed: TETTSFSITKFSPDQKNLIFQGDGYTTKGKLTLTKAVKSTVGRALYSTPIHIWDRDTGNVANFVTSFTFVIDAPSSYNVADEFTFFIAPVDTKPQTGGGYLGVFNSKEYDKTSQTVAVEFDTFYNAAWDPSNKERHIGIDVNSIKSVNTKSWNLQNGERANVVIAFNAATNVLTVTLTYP
UniProt P02870, 218-269 limits assumed: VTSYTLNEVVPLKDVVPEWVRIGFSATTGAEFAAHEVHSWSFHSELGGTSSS

For the compound `O=C(CCCCC1CCSS1)NCC(=O)NC(CCC(=O)Nc1cccc(NC[C@H](O)[C@@H](O)[C@H](O[C@H]2O[C@H](CO)[C@@H](O)[C@H](O)[C@H]2O)[C@H](O)CO)c1)(CCC(=O)Nc1cccc(NC[C@H](O)[C@@H](O)[C@H](O[C@H]2O[C@H](CO)[C@@H](O)[C@H](O)[C@H]2O)[C@H](O)CO)c1)CCC(=O)Nc1cccc(NC[C@H](O)[C@@H](O)[C@H](O[C@H]2O[C@H](CO)[C@@H](O)[C@H](O)[C@H]2O)[C@H](O)CO)c1` (stereo partly drawn), where the note is “ligand conjugate immobilized on gold chip, protein in PBS buffer”, the “Ka: Assosication Rate Constant” value was determined as 2.40 M^−1s^−1 × 10^4. In addition, the Kd (read-out: KD: Dissociation Constant, ligand conjugate immobilized on gold chip, protein in PBS buffer) stood at 6.04 µM. The bonding behavior result (result in words) is “could bond”.

Broadly, the Kd is the free concentration of one partner at which half of the binding sites on the other are occupied at equilibrium, for simple one-to-one binding.

The values above are taken from patent US8765384B2.
